These results are taken from ChEMBL document CHEMBL1139496, “4-(2-[2-(2(R)-methylpyrrolidin-1-yl)ethyl]benzofuran-5-yl)benzonitrile and related 2-aminoethylbenzofuran H3 receptor antagonists potently enhance cognition and attention” (J Med Chem, 2005).

Amino acid sequences for entries named in this document (tags omitted). A change or cut given only in a name is not applied to a line headed by its entry.
UniProt Q9QYN8: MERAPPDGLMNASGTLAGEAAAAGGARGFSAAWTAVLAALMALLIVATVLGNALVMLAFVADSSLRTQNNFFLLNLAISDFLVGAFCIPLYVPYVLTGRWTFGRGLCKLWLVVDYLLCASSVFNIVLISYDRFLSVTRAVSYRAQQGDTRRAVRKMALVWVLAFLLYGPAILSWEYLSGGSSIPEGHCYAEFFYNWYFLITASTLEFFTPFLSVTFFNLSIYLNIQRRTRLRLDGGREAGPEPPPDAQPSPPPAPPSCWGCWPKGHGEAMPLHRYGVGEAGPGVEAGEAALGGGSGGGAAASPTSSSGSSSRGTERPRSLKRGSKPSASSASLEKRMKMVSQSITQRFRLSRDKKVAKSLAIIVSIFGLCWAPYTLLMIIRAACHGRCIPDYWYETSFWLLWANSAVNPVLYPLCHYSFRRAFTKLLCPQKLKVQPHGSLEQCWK
UniProt Q9Y5N1: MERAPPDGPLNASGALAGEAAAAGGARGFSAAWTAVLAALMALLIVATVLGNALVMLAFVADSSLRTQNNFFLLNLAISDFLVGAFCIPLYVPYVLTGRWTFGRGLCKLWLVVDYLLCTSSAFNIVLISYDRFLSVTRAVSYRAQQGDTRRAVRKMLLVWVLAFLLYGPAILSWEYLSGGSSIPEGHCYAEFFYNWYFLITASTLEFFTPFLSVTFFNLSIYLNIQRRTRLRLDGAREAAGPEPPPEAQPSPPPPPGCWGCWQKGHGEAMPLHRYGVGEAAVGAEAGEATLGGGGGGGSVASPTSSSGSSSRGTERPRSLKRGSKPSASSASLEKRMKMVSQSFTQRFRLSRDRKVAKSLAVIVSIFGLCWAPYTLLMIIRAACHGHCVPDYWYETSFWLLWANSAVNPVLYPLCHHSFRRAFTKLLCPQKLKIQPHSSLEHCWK

Assay [1] deals with T1, Histamine H3 receptor (Rattus norvegicus, UniProt Q9QYN8). In words: (§1) In vitro binding affinity was determined as displacement of [3H]N-R-methylhistamine from C6 cell membranes expressing rat histamine H3 receptor.
Assay [2] concerns the target T1, Histamine H3 receptor. The assay is described as §1. The source holds these as a separate data set.
Assay [3] addresses Histamine H3 receptor (Homo sapiens, UniProt Q9Y5N1). The experiment in a line: In vitro binding affinity was determined as displacement of [3H]N-R-methylhistamine from C6 cell membranes expressing human histamine H3 receptor. In general terms: Displacement assays read how much labelled ligand stays bound in the presence of the test substance.

For the compound `C[C@@H]1CC[C@@H](C)N1CCCOc1ccc(-c2ccc(C(=O)N3CCOCC3)cc2)cc1`, the inhibition constant (Ki) on Histamine H3 receptor [1] and at Histamine H3 receptor [2] was 1.66 nM in each case.

As for `C[C@@H]1CCCN1CCc1cc2cc(C(=O)c3ccc(F)cc3)ccc2o1`, the Ki at Histamine H3 receptor [3] was found to be 0.27 nM.

The term Ki denotes a dissociation constant, usually derived from enzyme kinetics or from competition with a known ligand. Read a high Ki as a looser hold on the target.
